The conditions of the data set: FIG. 3; PLGA/PLA formulation prepared with processing aid (Poloxamer 407); effect of 10 pressure cycles vs no pressure cycling; HEPES buffer pH 7.4, 37° C.

As to Bovine Serum Albumin [BSA], the “decrease in the initial burst release of BSA from the formulation” value is “approximately 10%”.

Values taken from patent US20160235686A1, “PROCESSES FOR PREPARING A SOLID POLYMER MATRIX CONTAINING A CORE MATERIAL BY PRESSURE CYCLING OF SUPERCRITICAL FLUID” (priority 2013, published 2016).
